# Results reported in doi:10.1101/2021.02.22.432310, “Tetrameric UvrD helicase is located at the E. coli replisome due to frequent replication blocks” (bioRxiv, 2021).
# B1: Tau (natural protein, E. coli, UniProt P06710 1-643, looked up)
# chain: MSYQVLARKWRPQTFADVVGQEHVLTALANGLSLGRIHHAYLFSGTRGVGKTSIARLLAKGLNCETGITATPCGVCDNCREIEQGRFVDLIEIDAASRTKVEDTRDLLDNVQYAPARGRFKVYLIDEVHMLSRHSFNALLKTLEEPPEHVKFLLATTDPQKLPVTILSRCLQFHLKALDVEQIRHQLEHILNEEHIAHEPRALQLLARAAEGSLRDALSLTDQAIASGDGQVSTQAVSAMLGTLDDDQALSLVEAMVEANGERVMALINEAAARGIEWEALLVEMLGLLHRIAMVQLSPAALGNDMAAIELRMRELARTIPPTDIQLYYQTLLIGRKELPYAPDRRMGVEMTLLRALAFHPRMPLPEPEVPRQSFAPVAPTAVMTPTQVPPQPQSAPQQAPTVPLPETTSQVLAARQQLQRVQGATKAKKSEPAAATRARPVNNAALERLASVTDRVQARPVPSALEKAPAKKEAYRWKATTPVMQQKEVVATPKALKKALEHEKTPELAAKLAAEAIERDPWAAQVSQLSLPKLVEQVALNAWKEESDNAVCLHLRSSQRHLNNRGAQQKLAEALSMLKGSTVELTIVEDDNPAVRTPLEWRQAIYEEKLAQARESIIADNNIQTLRRFFDAELDEESIRPI
# notes: Tau subunit of DNA polymerase III, a component of the E. coli replisome; also called Tau protein
# Target: T1, Biotinylated Rep (E. coli, UniProt P09980 1-673, biotin)
# T1 construct: Rep helicase, E. coli; also called E. coli Rep
# T1 sequence (looked up): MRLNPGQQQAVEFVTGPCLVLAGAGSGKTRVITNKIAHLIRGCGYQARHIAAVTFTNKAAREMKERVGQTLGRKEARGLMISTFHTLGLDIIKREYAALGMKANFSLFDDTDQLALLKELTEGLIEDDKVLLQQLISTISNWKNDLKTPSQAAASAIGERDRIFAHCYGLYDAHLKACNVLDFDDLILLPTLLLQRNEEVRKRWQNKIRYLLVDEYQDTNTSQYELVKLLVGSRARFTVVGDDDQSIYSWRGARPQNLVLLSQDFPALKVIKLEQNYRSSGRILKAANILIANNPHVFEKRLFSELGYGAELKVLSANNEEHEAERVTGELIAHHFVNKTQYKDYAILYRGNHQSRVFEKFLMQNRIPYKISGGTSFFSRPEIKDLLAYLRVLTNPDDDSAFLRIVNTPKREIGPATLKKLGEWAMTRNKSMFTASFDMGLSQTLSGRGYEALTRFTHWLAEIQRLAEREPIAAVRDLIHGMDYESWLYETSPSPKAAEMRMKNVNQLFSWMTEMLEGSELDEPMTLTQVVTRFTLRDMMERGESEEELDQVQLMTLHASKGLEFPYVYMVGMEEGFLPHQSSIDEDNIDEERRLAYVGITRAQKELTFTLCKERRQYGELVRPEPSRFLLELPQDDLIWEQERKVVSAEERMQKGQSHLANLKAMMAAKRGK
# Assay: SPR; BIAcore T200, 25°C; biotinylated UvrD or Rep immobilised on streptavidin-coated SA chips; Tau or UvrB passed over, ca. 200-4000 nM, 20 µl/min; 10 mM HEPES pH 7.4, 3 mM EDTA, 150 mM NaCl, 10 mM MgCl2, 0.05% Tween 20; single sites binding model
# Conditions: both partners purified
binder,measurement,value
B1,Kd,2300 nM
